Tested on: Huntingtin (Homo sapiens), P42858 [UNDEFINED MUTATION]
Details: dose 10.0 nM

Sequences of proteins named here, by UniProt entry; tags and fusion partners are left off.
Huntingtin (Homo sapiens), P42858, UniProt P42858, whole entry, looked up, stated change not applied: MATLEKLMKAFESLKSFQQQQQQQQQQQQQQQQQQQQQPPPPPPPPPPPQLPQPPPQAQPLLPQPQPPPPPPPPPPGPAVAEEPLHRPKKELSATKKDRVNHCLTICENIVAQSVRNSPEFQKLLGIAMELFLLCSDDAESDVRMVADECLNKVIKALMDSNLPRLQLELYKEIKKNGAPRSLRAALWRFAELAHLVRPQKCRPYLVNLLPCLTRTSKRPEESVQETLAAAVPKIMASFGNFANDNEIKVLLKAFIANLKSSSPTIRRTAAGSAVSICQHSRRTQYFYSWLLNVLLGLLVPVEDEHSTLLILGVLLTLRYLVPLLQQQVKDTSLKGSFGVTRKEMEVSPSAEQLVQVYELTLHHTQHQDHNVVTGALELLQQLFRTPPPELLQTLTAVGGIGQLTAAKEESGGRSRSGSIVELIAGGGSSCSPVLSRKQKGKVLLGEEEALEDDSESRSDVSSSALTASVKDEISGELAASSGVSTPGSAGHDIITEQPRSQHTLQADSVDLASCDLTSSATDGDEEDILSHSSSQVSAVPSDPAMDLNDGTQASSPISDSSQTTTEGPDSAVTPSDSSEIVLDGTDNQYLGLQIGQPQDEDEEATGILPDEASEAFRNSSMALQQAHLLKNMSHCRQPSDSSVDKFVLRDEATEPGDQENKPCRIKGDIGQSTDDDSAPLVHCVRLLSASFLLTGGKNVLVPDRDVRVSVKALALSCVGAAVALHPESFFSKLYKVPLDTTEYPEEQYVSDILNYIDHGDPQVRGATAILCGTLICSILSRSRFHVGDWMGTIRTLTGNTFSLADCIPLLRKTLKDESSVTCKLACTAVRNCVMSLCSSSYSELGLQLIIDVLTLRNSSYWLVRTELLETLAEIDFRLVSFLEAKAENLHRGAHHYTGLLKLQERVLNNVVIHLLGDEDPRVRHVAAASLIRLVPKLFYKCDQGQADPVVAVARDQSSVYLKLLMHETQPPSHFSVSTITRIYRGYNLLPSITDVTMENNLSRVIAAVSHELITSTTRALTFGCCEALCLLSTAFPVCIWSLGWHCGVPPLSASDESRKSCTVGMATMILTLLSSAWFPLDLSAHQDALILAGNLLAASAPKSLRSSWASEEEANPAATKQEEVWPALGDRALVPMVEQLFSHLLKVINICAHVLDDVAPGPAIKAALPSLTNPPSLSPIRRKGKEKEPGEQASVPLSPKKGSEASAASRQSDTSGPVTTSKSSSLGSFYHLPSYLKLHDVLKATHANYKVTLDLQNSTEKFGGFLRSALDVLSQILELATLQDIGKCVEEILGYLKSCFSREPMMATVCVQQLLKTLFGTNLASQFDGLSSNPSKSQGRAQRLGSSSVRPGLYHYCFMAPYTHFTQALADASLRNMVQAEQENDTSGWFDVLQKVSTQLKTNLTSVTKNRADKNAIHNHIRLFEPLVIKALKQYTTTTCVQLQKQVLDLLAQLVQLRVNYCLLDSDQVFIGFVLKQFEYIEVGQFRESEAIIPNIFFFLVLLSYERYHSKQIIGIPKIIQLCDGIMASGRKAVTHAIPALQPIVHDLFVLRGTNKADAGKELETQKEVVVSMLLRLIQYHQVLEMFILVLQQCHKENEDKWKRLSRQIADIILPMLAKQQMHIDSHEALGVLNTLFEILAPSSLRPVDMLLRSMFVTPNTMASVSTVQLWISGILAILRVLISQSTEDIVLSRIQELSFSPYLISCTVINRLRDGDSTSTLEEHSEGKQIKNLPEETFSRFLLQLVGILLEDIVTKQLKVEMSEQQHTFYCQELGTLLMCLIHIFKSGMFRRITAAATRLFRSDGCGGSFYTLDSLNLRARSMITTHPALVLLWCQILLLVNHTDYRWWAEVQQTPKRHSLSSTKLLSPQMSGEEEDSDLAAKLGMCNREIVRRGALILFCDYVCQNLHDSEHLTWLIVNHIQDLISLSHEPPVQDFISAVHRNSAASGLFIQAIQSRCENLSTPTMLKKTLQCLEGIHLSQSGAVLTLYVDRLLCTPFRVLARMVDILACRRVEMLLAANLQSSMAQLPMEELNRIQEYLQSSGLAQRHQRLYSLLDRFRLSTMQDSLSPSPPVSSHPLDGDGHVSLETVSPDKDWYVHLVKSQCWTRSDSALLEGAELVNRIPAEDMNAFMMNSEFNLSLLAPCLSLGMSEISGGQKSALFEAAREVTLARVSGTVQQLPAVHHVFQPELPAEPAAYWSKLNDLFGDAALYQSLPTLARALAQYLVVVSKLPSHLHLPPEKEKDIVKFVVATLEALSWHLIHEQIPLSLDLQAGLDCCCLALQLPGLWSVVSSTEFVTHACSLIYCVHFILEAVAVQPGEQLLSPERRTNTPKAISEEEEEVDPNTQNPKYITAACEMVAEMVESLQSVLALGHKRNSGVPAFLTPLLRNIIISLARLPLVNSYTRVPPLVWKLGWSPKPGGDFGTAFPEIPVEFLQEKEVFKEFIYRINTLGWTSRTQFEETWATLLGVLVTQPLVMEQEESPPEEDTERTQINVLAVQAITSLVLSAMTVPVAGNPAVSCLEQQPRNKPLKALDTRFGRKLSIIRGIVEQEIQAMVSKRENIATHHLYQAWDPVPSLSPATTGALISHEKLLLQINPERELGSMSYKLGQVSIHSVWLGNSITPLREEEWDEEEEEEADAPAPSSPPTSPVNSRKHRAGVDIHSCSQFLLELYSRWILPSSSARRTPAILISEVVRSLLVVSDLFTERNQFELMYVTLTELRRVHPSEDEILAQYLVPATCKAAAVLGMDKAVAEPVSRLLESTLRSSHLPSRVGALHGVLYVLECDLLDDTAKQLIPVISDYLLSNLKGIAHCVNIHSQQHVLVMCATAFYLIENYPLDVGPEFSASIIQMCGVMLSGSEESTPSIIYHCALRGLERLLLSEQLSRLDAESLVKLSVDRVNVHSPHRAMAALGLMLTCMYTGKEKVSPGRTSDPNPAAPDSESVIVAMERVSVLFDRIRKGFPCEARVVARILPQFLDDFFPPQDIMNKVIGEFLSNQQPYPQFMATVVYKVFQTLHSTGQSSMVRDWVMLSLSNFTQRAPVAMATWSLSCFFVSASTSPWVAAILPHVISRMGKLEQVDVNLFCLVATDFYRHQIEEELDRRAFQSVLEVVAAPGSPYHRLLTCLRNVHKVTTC

Cc1cc2c(C(C)C)c(O)c(O)c(C=O)c2c(O)c1-c1c(C)cc2c(C(C)C)c(O)c(O)c(C=O)c2c1O
inhibition: 24%

Source: ChEMBL document CHEMBL5223149, “The Emerging Landscape of Small-Molecule Therapeutics for the Treatment of Huntington's Disease” (J Med Chem, 2022)
